{"source": "patent US20080138280A1", "about": "“Composition and Methods For Inhibiting Cell Survival” (The Cleveland Clinic Foundation, priority 2003, published 2008)", "test_system": "NF-κB DNA binding activity", "assay": "NF-κB DNA binding activity in melanoma cells after IFN-β", "assay_type": "cell-based", "from_the_text": "This endogenous production further sensitized cells to administration of exogenous Apo2L/TRAIL. […] The anti-tumor effects of IFN-β and NO-Cbl are synergistic in vitro and in vivo. Treatment with NO-Cbl increased the expression of Apo2L/TRAIL, DR4 and DR5 mRNAs, and caspase-8 enzymatic activity, indicating activation of the extrinsic apoptotic pathway."}
{"substance": "IFN-β: interferon-β, a cytokine", "values": [{"measurement": "DNA binding activity of NF-κB", "result": "did not alter"}]}
